{"source": "ChEMBL document CHEMBL1130600", "about": "“Tropane-based amino acids for peptide structure-function studies: inhibitors of platelet aggregation” (Bioorg Med Chem Lett, 1998)", "organism": "Homo sapiens", "experiment": "Compound was tested for its ability to inhibit the thrombin-induced platelet aggregation in washed human platelets", "assay_type": "functional"}
{"smiles": "N=C(N)NCCC[C@H](N)C(=O)NCC(=O)N[C@@H](CC(=O)O)C(=O)N[C@@H](CO)C(=O)O", "values": [{"measurement": "IC50", "result": 50, "unit": "µM"}]}
